In ChEMBL document CHEMBL4043061, “Potent, Selective, Allosteric Inhibition of Human Plasmin by Sulfated Non-Saccharide Glycosaminoglycan Mimetics” (J Med Chem, 2017) one finds IC50 and Kd data, which are given here for one compound.

By UniProt entry, the sequences of proteins in these tests, tags left out. Residues count along the entry.
UniProt P00747, 97-580 limits assumed: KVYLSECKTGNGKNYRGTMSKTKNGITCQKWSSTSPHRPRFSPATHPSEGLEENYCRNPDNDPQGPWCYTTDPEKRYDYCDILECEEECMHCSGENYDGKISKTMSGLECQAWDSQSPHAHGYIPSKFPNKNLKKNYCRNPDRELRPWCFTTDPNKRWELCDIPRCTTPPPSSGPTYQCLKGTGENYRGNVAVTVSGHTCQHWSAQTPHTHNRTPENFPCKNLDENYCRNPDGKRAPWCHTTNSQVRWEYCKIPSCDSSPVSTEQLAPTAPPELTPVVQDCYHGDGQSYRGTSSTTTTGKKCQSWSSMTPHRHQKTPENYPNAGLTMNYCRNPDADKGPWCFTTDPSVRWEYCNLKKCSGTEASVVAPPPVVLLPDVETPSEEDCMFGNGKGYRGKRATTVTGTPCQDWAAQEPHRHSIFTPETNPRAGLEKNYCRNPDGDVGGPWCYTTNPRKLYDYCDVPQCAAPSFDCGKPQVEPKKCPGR
UniProt P00747, 581-810 limits assumed: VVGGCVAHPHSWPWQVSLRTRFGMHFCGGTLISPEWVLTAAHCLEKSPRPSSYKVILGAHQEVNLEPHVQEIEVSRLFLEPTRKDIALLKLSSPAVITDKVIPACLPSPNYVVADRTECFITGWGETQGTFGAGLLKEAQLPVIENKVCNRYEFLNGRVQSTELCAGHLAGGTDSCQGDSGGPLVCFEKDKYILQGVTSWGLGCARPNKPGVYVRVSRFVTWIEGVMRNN

Assay [1] has as its target T1, Plasminogen (Homo sapiens, UniProt P00747).
Assay [2] concerns the target T1, Plasminogen. This is another data set of the same source.
Assay [3] deals with T1, Plasminogen. Description: Allosteric inhibition of full length human plasmin by using chromogenic substrate spectrozyme PL preincubated for 5 mins followed by substrate addition by spectrophotometric method. A digest of the protocol:
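Plasmin ~25 nM final in 20 mM Tris-HCl pH 7.4 (100 mM NaCl, 2.5 mM CaCl2, 0.1% PEG8000, 0.02% Tween80), 37 °C. Inhibitor added from 0–20 mM aqueous stocks, or vehicle. After 5 min, Spectrozyme PL added (1 mM stock). Residual activity taken from initial rate of A405 rise. Logistic fit gives IC50, efficacy and Hill slope.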

The target in assay [4] is T1, Plasminogen. Nature of the assay: Binding affinity to human plasmin assessed as loss of intrinsic tryptophan fluorescence at 250 uM by spectrofluorometric method. The procedure, abridged: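 Intrinsic tryptophan fluorescence titration (ex 280 nm, em 348 nm) at 37 °C in 20 mM Tris-HCl pH 7.4 with 100 mM NaCl, 2.5 mM CaCl2, 0.1% PEG8000. Aliquots of 250 µM aqueous inhibitor added to 160 nM plasmin. Fractional fluorescence change fitted by quadratic binding equation for KD and maximal change. Run in triplicate.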

Assay [5] has as its target T1, Plasminogen. This is another data set of the same source.
Assay [6] concerns the target T1, Plasminogen. The source holds these as a separate data set.
The target in assay [7] is T1, Plasminogen. The source holds these as a separate data set.
The target in assay [8] is T1, Plasminogen. The source holds these as a separate data set.
For assay [9], the target named is T1, Plasminogen. This is another data set of the same source.
The target in assay [10] is T1, Plasminogen. This is another data set of the same source.
Assay [11] deals with T1, Plasminogen. Nature of the assay: Binding affinity to human dansyl-EGR-chloromethylketone-plasmin complex assessed as loss of intrinsic tryptophan fluorescence by spectrofluorometric method.

For orientation: IC50 means the concentration that inhibits the measured activity by half. For orientation: Kd means the constant that tells how readily two partners part at equilibrium.

With `O=c1c(OS(=O)(=O)O)c(-c2ccc(OS(=O)(=O)O)c(OS(=O)(=O)O)c2)oc2cc(OS(=O)(=O)O)cc(OCc3ccc(COc4cc(OS(=O)(=O)O)cc5oc(-c6ccc(OS(=O)(=O)O)c(OS(=O)(=O)O)c6)c(OS(=O)(=O)O)c(=O)c45)cc3)c12`, the IC50 against Plasminogen [1] was 8.8 µM; at Plasminogen [2], 25.9 µM; at Plasminogen [3], 6.3 to 7.2 µM; against Plasminogen [5], 2.8 µM; against Plasminogen [6], 6.1 µM; at Plasminogen [7] it was 3.6 µM. For the same compound, the figures for the IC50 at Plasminogen [8], against Plasminogen [9] and against Plasminogen [10] were 10.4 µM, 14.1 µM and 4.6 µM, respectively. Moreover, the Kd at Plasminogen [4] amounted to 0.7 µM; on Plasminogen [11], 4.4 µM.
